In patent US20240299561A1, “HISTIDINE-SELECTIVE POLYMER REAGENTS” (Nektar Therapeutics, priority 2021, published 2024):

Assay: Hydrolytic stability of PEG conjugates with α-CBZ-histidine in PBS buffer, pH 7.4, 37° C. (HPLC)

Substance	degree of hydrolytic stability relative to the other conjugates tested	% Hydrolysis at day 10 [%]
mPEG-OCO-(2-CF3-piperazin-1-yl)-CO-α-CBZ-His 5 kDa [Conjugate 16]	highest degree of hydrolysis	46.0
mPEG-OCO—NH—CH2-(piperidin-4-yl)-α-CBZ-His 5 kDa [Conjugate 18]	highest degree of hydrolytic stability	2.7
mPEG-N(CH2CF3)—CO-α-CBZ-Histidine, 5 kDa [Conjugate 14]		26.5
mPEG-OCO—NH-(piperidin-4-yl)-CO-α-CBZ-His 5 kDa [Conjugate 17]	highest degree of hydrolytic stability	1.8
